Laboratory results published in ChEMBL document CHEMBL1134078, “Structure-based design, synthesis and SAR of a novel series of thiopheneamidine urokinase plasminogen activator inhibitors” (Bioorg Med Chem Lett, 2001).

Target: Urokinase-type plasminogen activator (Homo sapiens, UniProt P00749)

Ki | SMILES
90 nM | CSc1sc(C(=N)N)cc1-c1nc(-c2ccccc2)cs1
1000 nM | CSc1sc(C(=N)N)cc1-c1nc(C)cs1
89000 nM | CSc1sc(C(=N)N)cc1-c1nc(-c2cccs2)cs1
